# Apparent affinities of Ab-91 variants for a coronavirus HR2 peptide

From the AlphaSeq antibody data of Engelhart et al. 2022 (doi:10.1038/s41597-022-01779-4), copy in the FLAb collection.

Target peptide (SARS-CoV-2 spike, HR2 region): PDVDLGDISGINAS

Ab-91 is the parent antibody, in scFv form: VL, then the linker GGGGSGGGGSGGGGS, then VH. The light chain is unchanged in all variants.
VL: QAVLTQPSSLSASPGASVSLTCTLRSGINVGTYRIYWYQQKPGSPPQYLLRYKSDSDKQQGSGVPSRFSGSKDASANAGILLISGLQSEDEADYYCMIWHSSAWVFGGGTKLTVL
VH: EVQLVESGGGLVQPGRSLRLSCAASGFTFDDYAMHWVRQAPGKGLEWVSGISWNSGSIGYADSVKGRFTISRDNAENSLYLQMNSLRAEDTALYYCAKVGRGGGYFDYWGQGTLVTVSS

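Phage display of a naive human antibody library on the peptide gave the parent. AAYL51 was designed without a model: most single CDR substitutions and a random sample of double and triple ones. The scFvs were displayed on barcoded MATa yeast, the peptide on MATalpha yeast. After mating in shaken culture at 30 °C for 16 h, diploids were selected and their barcode pairs sequenced. Scores were corrected for input abundance and mapped to Kd with protein pairs of known affinity run in the same pool. Each pool was mated in three replicate cultures.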

Each variant's VH is given in full.
Only single mutants are listed, position by position.
Kd is apparent (estimated from mating counts) and averaged on the log scale over replicates with a signal. Smaller is tighter.
Where no diploid with the target was found in any replicate, the entry reads "not detected": below detection, most likely a poor binder, though not proof of it.

| VH | apparent Kd | seen in |
|---|---|---|
| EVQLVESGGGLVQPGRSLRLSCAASGFTFDDYAMHWVRQAPGKGLEWVSGISWNSGSIGYSDSVKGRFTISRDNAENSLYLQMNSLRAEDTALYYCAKVGRGGGYFDYWGQGTLVTVSS | not detected | 0/3 |
| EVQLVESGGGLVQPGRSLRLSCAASGFTFDDYAMHWVRQAPGKGLEWVSGISWNSGSIGYFDSVKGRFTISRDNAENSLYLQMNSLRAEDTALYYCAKVGRGGGYFDYWGQGTLVTVSS | not detected | 0/3 |
| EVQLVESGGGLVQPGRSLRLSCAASGFTFDDYAMHWVRQAPGKGLEWVSGISWNSGSIGYIDSVKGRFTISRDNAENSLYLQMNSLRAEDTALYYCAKVGRGGGYFDYWGQGTLVTVSS | not detected | 0/3 |
| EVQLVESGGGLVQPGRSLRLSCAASGFTFDDYAMHWVRQAPGKGLEWVSGISWNSGSIGYEDSVKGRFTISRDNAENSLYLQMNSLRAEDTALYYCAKVGRGGGYFDYWGQGTLVTVSS | 1.8 µM | 2/3 |
| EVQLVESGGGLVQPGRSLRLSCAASGFTFDDYAMHWVRQAPGKGLEWVSGISWNSGSIGYKDSVKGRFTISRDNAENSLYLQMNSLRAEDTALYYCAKVGRGGGYFDYWGQGTLVTVSS | 81 µM | 3/3 |
| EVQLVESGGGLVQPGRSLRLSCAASGFTFDDYAMHWVRQAPGKGLEWVSGISWNSGSIGYTDSVKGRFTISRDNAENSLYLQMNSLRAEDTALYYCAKVGRGGGYFDYWGQGTLVTVSS | 2.8 µM | 2/3 |
| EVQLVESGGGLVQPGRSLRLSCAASGFTFDDYAMHWVRQAPGKGLEWVSGISWNSGSIGYWDSVKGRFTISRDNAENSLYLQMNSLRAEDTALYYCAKVGRGGGYFDYWGQGTLVTVSS | 36 µM | 3/3 |
| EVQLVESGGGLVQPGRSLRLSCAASGFTFDDYAMHWVRQAPGKGLEWVSGISWNSGSIGYPDSVKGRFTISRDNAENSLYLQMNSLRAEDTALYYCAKVGRGGGYFDYWGQGTLVTVSS | 33 µM | 1/3 |
| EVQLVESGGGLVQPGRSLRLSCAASGFTFDDYAMHWVRQAPGKGLEWVSGISWNSGSIGYQDSVKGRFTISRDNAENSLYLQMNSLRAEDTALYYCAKVGRGGGYFDYWGQGTLVTVSS | 64 nM | 3/3 |
| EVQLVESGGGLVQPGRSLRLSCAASGFTFDDYAMHWVRQAPGKGLEWVSGISWNSGSIGYCDSVKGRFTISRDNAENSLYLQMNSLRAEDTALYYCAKVGRGGGYFDYWGQGTLVTVSS | 2.7 µM | 2/3 |
| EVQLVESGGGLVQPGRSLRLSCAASGFTFDDYAMHWVRQAPGKGLEWVSGISWNSGSIGYRDSVKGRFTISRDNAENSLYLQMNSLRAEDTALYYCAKVGRGGGYFDYWGQGTLVTVSS | 770 nM | 3/3 |
| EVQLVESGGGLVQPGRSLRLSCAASGFTFDDYAMHWVRQAPGKGLEWVSGISWNSGSIGYYDSVKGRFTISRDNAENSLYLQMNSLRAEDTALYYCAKVGRGGGYFDYWGQGTLVTVSS | 240 nM | 3/3 |
| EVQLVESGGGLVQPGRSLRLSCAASGFTFDDYAMHWVRQAPGKGLEWVSGISWNSGSIGYDDSVKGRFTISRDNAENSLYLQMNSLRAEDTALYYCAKVGRGGGYFDYWGQGTLVTVSS | 16 nM | 3/3 |
| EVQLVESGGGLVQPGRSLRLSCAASGFTFDDYAMHWVRQAPGKGLEWVSGISWNSGSIGYGDSVKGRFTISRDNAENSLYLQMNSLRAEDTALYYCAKVGRGGGYFDYWGQGTLVTVSS | 75 nM | 3/3 |
| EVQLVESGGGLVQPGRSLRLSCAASGFTFDDYAMHWVRQAPGKGLEWVSGISWNSGSIGYMDSVKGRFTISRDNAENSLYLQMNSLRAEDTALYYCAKVGRGGGYFDYWGQGTLVTVSS | 51 nM | 3/3 |
| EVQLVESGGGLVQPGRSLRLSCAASGFTFDDYAMHWVRQAPGKGLEWVSGISWNSGSIGYNDSVKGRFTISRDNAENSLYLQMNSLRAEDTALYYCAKVGRGGGYFDYWGQGTLVTVSS | 290 µM | 1/3 |
| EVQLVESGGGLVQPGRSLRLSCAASGFTFDDYAMHWVRQAPGKGLEWVSGISWNSGSIGYAMSVKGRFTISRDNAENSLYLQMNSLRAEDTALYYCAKVGRGGGYFDYWGQGTLVTVSS | 22 µM | 1/3 |
| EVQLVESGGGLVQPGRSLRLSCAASGFTFDDYAMHWVRQAPGKGLEWVSGISWNSGSIGYAYSVKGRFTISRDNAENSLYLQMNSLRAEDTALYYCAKVGRGGGYFDYWGQGTLVTVSS | 290 nM | 3/3 |
| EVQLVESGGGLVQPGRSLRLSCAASGFTFDDYAMHWVRQAPGKGLEWVSGISWNSGSIGYAWSVKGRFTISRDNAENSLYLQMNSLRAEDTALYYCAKVGRGGGYFDYWGQGTLVTVSS | not detected | 0/3 |
| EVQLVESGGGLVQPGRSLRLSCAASGFTFDDYAMHWVRQAPGKGLEWVSGISWNSGSIGYARSVKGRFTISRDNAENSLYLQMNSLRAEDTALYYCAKVGRGGGYFDYWGQGTLVTVSS | 3.8 µM | 1/3 |

From the list, the first 2 with no signal in any replicate:

{"VH": "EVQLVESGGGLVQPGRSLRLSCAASGFTFDDYAMHWVRQAPGKGLEWVSGISWNSGSIGYSDSVKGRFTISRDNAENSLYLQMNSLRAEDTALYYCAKVGRGGGYFDYWGQGTLVTVSS", "apparent Kd": "not detected", "seen in": "0/3"}
{"VH": "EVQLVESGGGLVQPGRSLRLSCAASGFTFDDYAMHWVRQAPGKGLEWVSGISWNSGSIGYFDSVKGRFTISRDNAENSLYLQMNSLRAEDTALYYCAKVGRGGGYFDYWGQGTLVTVSS", "apparent Kd": "not detected", "seen in": "0/3"}

Nonspecific signal, from three strains lacking the peptide, appeared in 21% of pairings of library AAYL51, centred on 34 µM (5% of these signals below 1.8 µM); values are not corrected for it.
Parent in this assay: reference entry 72 nM, copy in this library 7.5 nM.